# AlphaSeq binding of Ab-14 heavy chain variants to a spike HR2 peptide

Values reported by Li et al. 2023, doi:10.1038/s41467-023-39022-2 (FLAb copy).

Antigen: PDVDLGDISGINAS, a 14-residue peptide of the SARS-CoV-2 spike HR2 region.

Ab-14 is the parent antibody, in scFv form: VH, then a 15-residue (Gly4Ser)3 linker, then VL. The light chain is unchanged in all variants.
VH: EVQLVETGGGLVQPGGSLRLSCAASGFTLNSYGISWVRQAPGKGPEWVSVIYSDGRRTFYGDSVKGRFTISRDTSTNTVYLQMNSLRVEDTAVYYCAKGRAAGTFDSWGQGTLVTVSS
VL: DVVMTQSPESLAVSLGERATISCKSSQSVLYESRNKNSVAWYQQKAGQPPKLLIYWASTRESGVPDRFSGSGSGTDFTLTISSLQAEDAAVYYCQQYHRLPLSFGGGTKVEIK

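The starting antibody came from a phage panning campaign against this peptide. Designed CDR sequences, proposed from the first random library and measured here. Their group label is 14H_GP_HC (GP: Gaussian process model; HC: hill climbing; a sequence that several methods proposed may carry one label only). The scFvs were displayed on barcoded MATa yeast, the peptide on MATalpha yeast. Mating (16 h, 30 °C) was followed by selection of diploids and sequencing of their barcodes. The ratio of observed to expected reads was calibrated, replicate by replicate, on BCL2-family standards whose Kd was known from biolayer interferometry. The assay was run in six technical replicates.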

Each variant is given by its three heavy chain CDRs, as the data file delimits them; those of the parent are GFTLNSYGIS, VIYSDGRRTFYGDSVK, GRAAGTFDS.
The read-out is the apparent dissociation constant on a log10 scale (nM): the lower, the stronger.
An entry "ND" has no value in the source: the pair was not observed among the diploids in that replicate. This suggests poor binding but is not conclusive.
The authors' rule: three or more of the six replicates give a measured affinity, fewer mean a poor binder.

With GFTLESYGIS | VIYSDGRRTFYTDSVK | GQGAGTFDS the result was 1.41, 2.34, 2.62, 1.71, 2.60, 3.60 (controls 1 of 18).
With GFTLNQYGIS | VIYSDGRRTFYADSVK | GRLAGTFDT the result was 0.14, -0.08, 0.00, -0.09, 0.01, 0.32 (controls 0 of 18).
With GFTLKSYGIS | VIYSDGRRTFYDDSVK | GKVAGTFDS the result was -0.42, -0.21, 0.71, -0.64, -0.60, 0.92 (controls 0 of 18).
With GFTLNQYGIS | VIYSDGRRTQYIDSVK | GRAAGTFDS the result was ND, ND, ND, 0.61, 0.04, ND (controls 0 of 18).
With GFTLNSYGIS | VIYSDGRRTFYGDSVK | GRAAGTFTM the result was 1.38, 1.63, ND, ND, ND, ND (controls 0 of 18).
With GFDLNSYGIS | VIYSDGRRTFYDDSVK | GQVAGKFDS the result was ND, ND, ND, ND, ND, 2.73 (controls 1 of 18).
With GFTLNSYGIS | VIYSDGRRTFYIDSVK | GTLAGTFDS the result was 0.99, 2.21, 0.45, 0.84, 1.06, 1.17 (controls 1 of 18).
With GFTLESYGIS | VIYSDGRRTFYSDSVK | GRAAGTFSS the result was ND, ND, 0.52, ND, ND, ND (controls 0 of 18).
With GFTLEKYGIS | VIYSDGRRTFYGDSVK | GRTAGTFDS the result was 0.19, 0.91, 0.53, 0.97, 0.06, 0.33 (controls 0 of 18).
With GFTLMSYGIS | VIYADGRRTFYGDSVK | GQAAGTFES the result was 0.63, 1.16, ND, ND, 0.43, 1.49 (controls 0 of 18).
With GFTLNEYGIS | VIYSDGRRTQYQDSVK | GRAAGTFDS the result was 1.14, 0.70, ND, 0.98, 0.96, 1.15 (controls 0 of 18).
With GFTLNDYGIS | VIYSDGRRTYYGDSVK | GRTAGTFIS the result was ND, ND, ND, 1.64, ND, ND (controls 0 of 18).
With GFQLNDYGIS | VIYSDGRRTFYGDSVK | GRLAGTFIS the result was ND, ND, ND, ND, ND, ND (controls 0 of 18).
With GFELNDYGIS | VIYSDGRRTFYGDAVK | GRAAGTFDI the result was 0.63, 1.16, 0.96, 0.95, 0.67, 0.83 (controls 0 of 18).
With GFWLNEYGIS | VIYSDGRRTFYHDSVK | GRAAVTFDK the result was ND, ND, ND, ND, ND, ND (controls 0 of 18).
With GFGLNEYGIS | VIYADGRRTFYGDSVK | GGAAGTFDS the result was 0.16, -0.10, -0.09, -0.19, -0.29, -0.20 (controls 1 of 18).
With GFTLNDYGIS | VIYSDGWRTMYIDSVK | GRAAGTFDS the result was 0.85, ND, 1.42, 1.18, 1.63, ND (controls 0 of 18).
With GFTLNSYGIS | VIYADGRRTFYGDAVK | GRAAGTFKS the result was ND, ND, ND, ND, ND, ND (controls 0 of 18).
With GFKLNSYGIS | VIYSDGRRTFYVDSVK | GQLAGTFDS the result was ND, ND, ND, 1.44, 1.56, ND (controls 1 of 18).
With RFTLNSYGIS | VIYSDGRRTFYIDSVK | GKIAGTFDS the result was ND, ND, ND, ND, ND, ND (controls 0 of 18).
With GPTLNEYGIS | VIYSDGRRTFYTDSVK | GRTAGTFDS the result was 0.44, 0.65, 0.34, 0.21, 0.38, 0.59 (controls 1 of 18).
With GFKLNSYGIS | VIYSDGRRTFYIDSVK | GQLAGTFDS the result was ND, ND, ND, ND, ND, ND (controls 0 of 18).
With GFTLNEYGIS | VIYSDGRRTFYGDSVK | GRQAVTFDI the result was ND, ND, ND, ND, ND, ND (controls 0 of 18).
With GFTLNSYGIS | VIYSDGRRTAYADSVK | GRAGGTFDS the result was 1.44, 1.92, 1.47, 1.89, 1.48, 1.30 (controls 0 of 18).
With GFDLNSYGIS | VIYSDGRRTFYVDSVK | GRRAGTFES the result was ND, ND, ND, ND, ND, ND (controls 0 of 18).
With GFELNEYGIS | VIYSDGRRTFYSDSVK | GQPAGTFDS the result was -0.11, 0.03, -0.13, -0.18, -0.11, 0.13 (controls 0 of 18).
With GFTLNSYGIS | VIYSDGRRTFYDDDVK | GQAAGTFDS the result was ND, 2.47, 1.12, 1.84, 2.70, 1.94 (controls 0 of 18).
With GFTLNSYGIS | VIYSDGQRTFYSDSVK | GRAVGTFDS the result was ND, ND, ND, ND, ND, ND (controls 0 of 18).
With GFRLNSYGIS | VIYSDGRRTFYQDSVK | GQNAGTFDS the result was ND, ND, ND, ND, ND, ND (controls 0 of 18).
With GFNLNSYGIS | VIYADGRRTFYHDSVK | GRAAGTFDS the result was 0.51, 0.05, -0.14, -0.27, 0.43, 0.87 (controls 0 of 18).
With GFDLNSYGIS | VIYSDGRRTFYIDSVK | GRAAGTFNK the result was ND, ND, ND, 1.83, 1.75, ND (controls 0 of 18).
With LFTLNEYGIS | VIYSDGRRTFYSDSVK | GRTAGTFDS the result was ND, ND, ND, ND, ND, ND (controls 0 of 18).
With GFTLNSYGIS | VIYSDGRRTFYDDSVK | GQAAGTFDD the result was ND, ND, 2.16, 2.65, ND, ND (controls 1 of 18).
With GFTLNSYGIS | VIYADGRRTFYGDSVK | GKAAGTFKL the result was 1.48, ND, 1.63, ND, ND, ND (controls 1 of 18).
With GFHLNDYGIS | VIYSDGRRTFYIDSVK | GRTAGTFDS the result was 0.53, 0.35, 0.72, 1.91, 0.15, 0.13 (controls 2 of 18).
With GFTLNEYGIS | VIYSDGRRTFYADSVK | GRWAGTFDS the result was 0.29, -0.01, 0.26, -0.14, 0.63, 0.09 (controls 0 of 18).
With GFDLNSYGIS | VIYSDGRRTFYIDSVK | GREAGTFNM the result was 0.35, 0.40, 0.07, 0.07, 0.24, 0.54 (controls 0 of 18).
With GFTLNEYGIS | VIYSDGRRTFYGDSVK | GHAAGTFDN the result was 1.01, 0.44, 0.58, 0.73, 0.40, 0.76 (controls 0 of 18).
With GFTLNDYGIS | VIYSDGRRTFYGDSVK | GRQAGTFES the result was 1.53, 0.99, 1.16, 1.58, 1.13, 1.21 (controls 2 of 18).
With SFTLNSYGIS | VIYSDGQRTFYIDSVK | GRIAGTFDS the result was ND, ND, ND, ND, ND, ND (controls 0 of 18).
With GFWLNDYGIS | VIYSDGRRTVYIDSVK | GRAAGTFDS the result was ND, 2.18, ND, ND, 1.12, ND (controls 0 of 18).
With RFKLNSYGIS | VIYSDGRRTFYIDSVK | GRIAGTFDS the result was ND, ND, ND, 0.49, ND, ND (controls 0 of 18).
With GFSLNEYGIS | VIYSDGRRTFYCDSVK | GRAAVTFDS the result was ND, ND, ND, 1.09, ND, ND (controls 0 of 18).
With GFTLNEYGIS | VIYSDGERTFYCDSVK | GRAAGTFDS the result was 0.38, ND, 0.44, 0.13, 0.92, 2.12 (controls 0 of 18).
With GFTLNSYGIS | VIYSDGRRTFYDDNVK | GQEAGTFDS the result was 1.87, 1.33, 0.69, 1.25, 2.64, 1.26 (controls 1 of 18).
With GNTLNSYGIS | VIYADGRRTFYSDSVK | GRAAGTFDS the result was 0.35, 0.34, -0.07, 0.36, 0.05, 0.40 (controls 0 of 18).
With GFDLNSYGIS | VIYSDGRRTFYSDSVK | GRAAVTFDS the result was ND, ND, ND, ND, ND, ND (controls 1 of 18).
With GETLNSYGIS | VIYADGRRTFYSDSVK | GKAAGTFDS the result was 0.81, 1.54, 0.63, 1.25, 1.47, 2.01 (controls 0 of 18).

The opening 5 entries, copied out:

CDR-H1	CDR-H2	CDR-H3	log10 Kd, replicates	empty controls
GFTLESYGIS	VIYSDGRRTFYTDSVK	GQGAGTFDS	1.41, 2.34, 2.62, 1.71, 2.60, 3.60	1 of 18
GFTLNQYGIS	VIYSDGRRTFYADSVK	GRLAGTFDT	0.14, -0.08, 0.00, -0.09, 0.01, 0.32	0 of 18
GFTLKSYGIS	VIYSDGRRTFYDDSVK	GKVAGTFDS	-0.42, -0.21, 0.71, -0.64, -0.60, 0.92	0 of 18
GFTLNQYGIS	VIYSDGRRTQYIDSVK	GRAAGTFDS	ND, ND, ND, 0.61, 0.04, ND	0 of 18
GFTLNSYGIS	VIYSDGRRTFYGDSVK	GRAAGTFTM	1.38, 1.63, ND, ND, ND, ND	0 of 18

Of ten entries with the parent sequence, four were seen in most replicates (averages 0.34 to 2.37), three in one and three in none, so single entries are noisy.
Nonspecific signal, from three strains lacking the peptide, appeared in 1% of pairings of all heavy chain designs, centred on 2.08 (5% of these signals below 0.84); values are not corrected for it. Also given: how often the same scFv was detected with the empty control strains.
The range of this assay differs from that of the first round, and the authors advise against merging the two.